According to PMC3880646 (Journal of medicinal chemistry, 2013):

What was measured:
[1] = system: SJSA-1 osteosarcoma tumor xenograft; format: in vivo
[2] = system: RS4;11 acute lymphoblastic leukemia xenograft; format: in vivo

CC(C)(C)C[C@@H]1N[C@@H](C(=O)N[C@H]2C[C@@](C)(O)C2)[C@H](c2cccc(Cl)c2F)[C@]12C(=O)Nc1cc(Cl)ccc12 [Compound 9]
durability of tumor regression ([1]; 100 mg/kg, 60 days after the last dose): all the mice remained tumor free
mice with undetectable tumor ([1]; 100 mg/kg, after 10 days of dosing): 8 out of 8
tolerability (animal weight, signs of toxicity) ([1]; 10, 30 and 100 mg/kg oral daily, entire experiment): minimal weight loss and no sign of toxicity
durability of tumor regression ([2]; 200 mg/kg, 26 days after the last dose): still remained tumor free
complete tumor regression ([2]; 200 mg/kg, after 7 days of dosing): Complete tumor regression was observed in all the animals
tolerability (weight loss, signs of toxicity) ([2]; 100 and 200 mg/kg oral daily, entire experiment): no significant weight loss or other signs of toxicity
